Legend:
Assay in all cases: SPR
[1] = target: human LIG1 peptide, K126me2, C-terminal biotin (human, UniProt P18858, di-methylated lysine at K126; biotin at the C-terminus)
[2] = target: human LIG1 peptide, unmodified (K126me0), C-terminal biotin (human, UniProt P18858, biotin at the C-terminus)
[3] = target: human LIG1 peptide, K126me1, C-terminal biotin (human, UniProt P18858, mono-methylated lysine at K126; biotin at the C-terminus)

Amino acid sequences for entries named in this document (tags omitted). A change or cut given only in a name is not applied to a line headed by its entry.
UniProt P18858: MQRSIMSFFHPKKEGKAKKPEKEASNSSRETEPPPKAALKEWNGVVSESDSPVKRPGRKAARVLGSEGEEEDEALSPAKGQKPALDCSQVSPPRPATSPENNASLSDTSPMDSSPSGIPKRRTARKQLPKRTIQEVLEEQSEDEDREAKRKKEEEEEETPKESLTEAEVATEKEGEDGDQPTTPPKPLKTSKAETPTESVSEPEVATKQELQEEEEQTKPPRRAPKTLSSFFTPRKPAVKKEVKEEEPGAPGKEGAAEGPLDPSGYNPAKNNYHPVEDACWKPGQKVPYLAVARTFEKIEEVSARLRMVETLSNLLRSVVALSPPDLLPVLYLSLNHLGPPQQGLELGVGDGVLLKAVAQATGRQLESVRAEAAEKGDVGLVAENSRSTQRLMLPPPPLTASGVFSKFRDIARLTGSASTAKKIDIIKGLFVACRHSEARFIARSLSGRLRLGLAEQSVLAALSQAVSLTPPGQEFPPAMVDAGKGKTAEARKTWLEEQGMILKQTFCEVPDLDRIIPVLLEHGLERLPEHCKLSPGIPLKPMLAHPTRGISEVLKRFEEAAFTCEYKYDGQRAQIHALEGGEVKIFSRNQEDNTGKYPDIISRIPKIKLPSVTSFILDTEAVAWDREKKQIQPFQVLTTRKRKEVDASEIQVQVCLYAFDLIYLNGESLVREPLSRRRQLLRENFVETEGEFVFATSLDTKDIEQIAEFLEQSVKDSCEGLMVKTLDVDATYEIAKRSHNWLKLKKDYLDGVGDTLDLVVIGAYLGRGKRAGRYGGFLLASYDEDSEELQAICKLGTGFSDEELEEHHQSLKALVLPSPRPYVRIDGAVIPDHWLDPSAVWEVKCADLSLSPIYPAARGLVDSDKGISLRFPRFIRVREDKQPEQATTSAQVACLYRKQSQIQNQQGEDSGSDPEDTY

Kd [1]: > 1000 nM
Kd [2]: 550 nM
Kd [3]: > 1000 nM
B1: human G9a SET-domain (residues 913–1193) (domain or fragment)
chain: NRAIRTEKIICRDVARGYENVPIPCVNGVDGEPCPEDYKYISENCETSTMNIDRNITHLQHCTCVDDCSSSNCLCGQLSIRCWYDKDGRLLQEFNKIEPPLIFECNQACSCWRNCKNRVVQSGIKVRLQLYRTAKMGWGVRALQTIPQGTFICEYVGELISDAEADVREDDSYLFDLDNKDGEVYCIDARYYGNISRFINHLCDPNIIPVRVFMLHQDLRFPRIAFFSSRDIRTGEELGFDYGDRFWDIKSKYFTCQCGSEKCKHSAEAIALEQSRLARLD
